# Test results taken from patent publication US8304418B2, “Pyrazolopyrimidinone kinase inhibitor” (Agennix AG, priority 2007, dated 2012).
# Test: Solubility of the maleic acid salt
# Type: physicochemical
# Experimental: 6-(3-Hydroxy-4-(pyrrolidinomethyl)phenylmethyl)-3-isopropyl-1-(3,5-dichloropyridin-4-yl)-pyrazolo[3,4-d]pyrimidin-4-one (as free base, see Example B.7) was dissolved in isopropyl alcohol at 70° C., and a solution of maleic acid (1.05 equiv.) in isopropyl alcohol was added. The reaction mixture was stirred at 70° C. for 20 minutes, then cooled to RT overnight and filtered. The resulting solid was added to H2O, the slurry stirred for 24 hours at RT and filtered. Melting point=209° C.
substance,measurement,value
"6-(3-Hydroxy-4-(pyrrolidinomethyl)phenylmethyl)-3-isopropyl-1-(3,5-dichloropyridin-4-yl)-pyrazolo[3,4-d]pyrimidin-4-one (Maleic Acid Salt) [Example B.8]",solubility,2.5 µg/mL
